Test results reported in patent US9006194B2, “Compositions and methods for diminishing viral infection and inflammation associated with viral infection” (Drexel University, priority 2008, dated 2015).

Test system: CD4+ and CD8+ T cells
Experiment: Apoptosis assay of primary human CD4+ and CD8+ T lymphocytes exposed to Type 1 interferon (CD95/Fas-induced, Annexin V)
Details: 5 ng/mL for 72 hours, resting or anti-CD3 activated T cells, n=5 healthy donors

B1: IFN-β: Type I interferon (protein, UniProt P01574 22-187, looked up)
Interferon beta: MSYNLLGFLQRSSNFQCQKLLWQLNGRLEYCLKDRMNFDIPEEIKQLQQFQKEDAALTIYEMLQNIFAIFRQDSSSTGWNETIVENLLANVYHQINHLKTVLEEKLEKEDFTRGKLMSSLHLKRYYGRILHYLKAKEYSHCAWTIVRVEILRNFYFINRLTGYLRN
CD95/Fas-induced apoptosis of T cells (in words): increase
